The numbers were not newly measured in publication PMC7262448, “Disconnect between signalling potency and in vivo efficacy of pharmacokinetically optimised biased glucagon-like peptide-1 receptor agonists” (Molecular Metabolism, 2020), which cites them from elsewhere.

This data set has as its system human plasma proteins. Particulars: EScalate.

In the case of liraglutide, the “Unbound fraction in human plasma” value was 0.51%.
